# Experimental data from PubChem BioAssay AID588649 (The Scripps Research Institute Molecular Screening Center, 2011).
# The list shows a part of the results, in another mix than the full data. Activity calls are given as the source filed them. Cut-off read from the data, not from the text of the source: active = inhibition above about 40%; inactive = the rest.
# System: Fam108b (ABHD17B) [Mus musculus]
# Experiment: inhibition of mouse Fam108b by HTS hits, late-stage follow-up, biochemical, gel-based ABPP, soluble recombinant form (AID 588649)
# Settings: fluorophosphonate probe, at 20 µM, active compounds read high
smiles,measurement,value
CN(C)C(=O)c1cc([N+](=O)[O-])cc2c1-c1c(cc([N+](=O)[O-])cc1[N+](=O)[O-])C2=O,inhibition,inactive: 35%
